Test system: phospholamban serine-16
Test: Phosphorylation of PLB at serine-16 in failed LV tissue homogenate with/without PK inhibitor and CCM signal (Western blot)
Type: biochemical, dog
Settings: Control + PK Inhibitor, no CCM, single samples

SMILES: CN[C@@H]1C[C@H]2O[C@@](C)([C@@H]1OC)n1c3ccccc3c3c4c(c5c6ccccc6n2c5c31)C(=O)NC4 [STAUROSPORIN]
- P-PLB serine-16 (10 sec): 13.7
- P-PLB serine-16 (30 sec): 11.9

Reference: patent publication US8352031B2, “Protein activity modification” (Impulse Dynamics NV, priority 2004, dated 2013)
